Each structure is given as a SMILES string.

The subject of this test is P-ERK in HCT116 cells expressing WT BRAF. Kind of test: HTRF assay for P-ERK determination in HCT116 cells (paradoxical BRAF activation). It is filed as cell-based. Conditions: HCT-116 cells; maximum P-ERK signal as percentage of highest dabrafenib signal within dose range tested. The source says: A375 is a cellular cancer model expressing V600E mutated BRAF and HCT116 a cellular cancer model expressing WT BRAF. First generation BRAF inhibitors such as e.g. dabrafenib induce a paradox effect on tumour cells in that they inhibit the growth of V600E mutated BRAF cells (such as e.g. A375), while they activate growth in WT BRAF cells (such as e.g. HCT 116). ERK 1,2 phosphorylation (terminal member of the phosphorylation cascade of the MAPK pathway) is hereafter reported as main readout for the activation status of the MAPK pathway. Prior to the assay, A375 and HCT116 cell lines are maintained in DMEM no-phenol red medium supplemented with 10% fetal bovine serum (FBS). Following compound treatment, P-ERK levels are determined by measuring FRET fluorescence signal induced by selective binding of 2 antibodies provided in the mentioned kit (Cisbio cat #64AERPEH) on ERK protein when phosphorylated at Thr202/Tyr204. […]
The plate is then analyzed and fluorescence emission value collected through a Pherastast FSX (BMG Labtech) apparatus at […].
The obtained fluorescence values are processed according to the formula Ratio=[…]*10000 then the average of the ratio on the blank is subtracted to all values. […]
In general terms: Time-resolved FRET reads energy transfer from a long-lived donor to a nearby acceptor.

Turning to `CCCS(=O)(=O)Nc1ccc(F)c(Oc2ccc3ncn(C)c(=O)c3c2)c1C#N` [AR-25], the “Percentage of Maximum paradox inducing effect from dabrafenib” value was 103%.

The values are drawn from patent US20240197735A1, “METHODS AND COMPOSITIONS COMPRISING A BRAF INHIBITOR AND A PD-1 BINDING ANTAGONIST” (Hoffmann-La Roche Inc., priority 2021, published 2024).
